Chains of the proteins cited; added tags and fusions are not shown.
UniProt Q96RJ0, whole entry: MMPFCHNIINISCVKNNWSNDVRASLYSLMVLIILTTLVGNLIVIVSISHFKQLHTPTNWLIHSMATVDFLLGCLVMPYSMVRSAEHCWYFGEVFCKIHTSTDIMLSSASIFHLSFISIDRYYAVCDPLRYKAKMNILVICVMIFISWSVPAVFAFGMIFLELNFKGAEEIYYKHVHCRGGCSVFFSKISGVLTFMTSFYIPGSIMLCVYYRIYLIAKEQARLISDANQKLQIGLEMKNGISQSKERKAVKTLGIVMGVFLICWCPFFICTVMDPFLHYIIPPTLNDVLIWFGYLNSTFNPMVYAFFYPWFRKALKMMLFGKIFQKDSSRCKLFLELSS

According to US20250382306A1, “HETEROCYCLIC COMPOUND AS TAAR1 LIGAND AGONIST” (SHANDONG LUYE PHARMACEUTICAL CO., LTD., priority 2022, published 2025):

Biological target: TAAR1 (Homo sapiens, UniProt Q96RJ0)
Test: In vitro TAAR1 functional activity (cAMP Hunter CHO-K1 TAAR1 Gs cell line, HitHunter cAMP assay)
Settings: chemiluminescence cAMP readout

| Structure (SMILES) | EC50 [µM] |
| --- | --- |
| CC(=O)c1ccsc1C1CNCCO1 (single isomer, unassigned) | > 10 |
| Fc1ccsc1C1CNCCO1 (single isomer, unassigned) [Compound 7-a] | 4.14 |
| Fc1ccsc1C1CNCCO1 (single isomer, unassigned) [Compound 7-b] | 0.344 |
